Laboratory results from US20220296595A1, “CDK INHIBITORS” (QILU REGOR THERAPEUTICS INC., priority 2019, published 2022).

The chains behind the UniProt entries cited, without tags or fusion partners.
UniProt Q00534, whole entry: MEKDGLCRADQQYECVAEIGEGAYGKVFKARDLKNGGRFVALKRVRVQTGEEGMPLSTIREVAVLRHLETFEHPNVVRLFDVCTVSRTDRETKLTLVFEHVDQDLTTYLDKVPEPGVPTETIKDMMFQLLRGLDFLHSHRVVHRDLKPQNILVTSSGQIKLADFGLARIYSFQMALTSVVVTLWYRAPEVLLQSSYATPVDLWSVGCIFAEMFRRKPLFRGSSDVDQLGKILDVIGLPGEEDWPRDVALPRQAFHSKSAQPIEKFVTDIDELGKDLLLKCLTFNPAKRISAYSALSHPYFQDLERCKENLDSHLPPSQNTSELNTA
UniProt P11802, whole entry: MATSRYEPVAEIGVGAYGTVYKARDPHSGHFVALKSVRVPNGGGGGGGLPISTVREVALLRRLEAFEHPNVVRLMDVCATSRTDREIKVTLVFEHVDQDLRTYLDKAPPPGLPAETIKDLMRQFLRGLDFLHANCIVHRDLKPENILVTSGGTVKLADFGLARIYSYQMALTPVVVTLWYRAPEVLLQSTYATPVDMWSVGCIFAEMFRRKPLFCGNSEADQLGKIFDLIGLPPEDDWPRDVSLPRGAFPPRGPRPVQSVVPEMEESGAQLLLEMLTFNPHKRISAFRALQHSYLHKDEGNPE
UniProt P30281, whole entry partner: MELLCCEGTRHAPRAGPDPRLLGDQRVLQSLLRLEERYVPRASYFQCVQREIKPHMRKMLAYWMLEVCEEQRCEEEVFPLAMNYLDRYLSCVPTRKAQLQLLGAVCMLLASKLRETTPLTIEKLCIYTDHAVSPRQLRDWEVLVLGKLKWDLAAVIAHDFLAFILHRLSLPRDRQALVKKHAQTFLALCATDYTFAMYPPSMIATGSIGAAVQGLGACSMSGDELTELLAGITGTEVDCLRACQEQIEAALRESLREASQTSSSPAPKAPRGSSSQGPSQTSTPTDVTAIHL
UniProt P24385, whole entry partner: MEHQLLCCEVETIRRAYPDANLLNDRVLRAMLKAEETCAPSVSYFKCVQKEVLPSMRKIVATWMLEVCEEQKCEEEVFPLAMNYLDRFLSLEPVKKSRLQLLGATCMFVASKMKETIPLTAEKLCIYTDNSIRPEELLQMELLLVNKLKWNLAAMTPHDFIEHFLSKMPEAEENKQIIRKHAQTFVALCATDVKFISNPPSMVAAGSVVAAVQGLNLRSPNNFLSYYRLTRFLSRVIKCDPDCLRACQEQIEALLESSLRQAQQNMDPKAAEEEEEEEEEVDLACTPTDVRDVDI

Experiments:
[1] = system: phosphorylation of Retinoblastoma Protein (pRb Ser807/811 or Ser780) in T47D cells; test: Inhibition of phosphorylation of retinoblastoma protein (pRb) in T47D cell (ELISA); format: cell-based, human; settings: read-out: Phospho T47D Ser807 IC50
Description: T47D breast cancer cells from American Type Culture Collection (ATCC, HTB-133) were plated at 40,000 cells/well in 96-well plates, and were incubated in RPMI 1640 medium (Gibco, 31800105) with 10% Fetal Bovine Serum (FBS, Biowest, FB-1058). Cells were then allowed to adhere overnight at 37° C., 5% CO2. The following day, compounds were titrated in a 3-fold dilution scheme, and the highest compound concentration tested was […]. After 24 hours incubation with compounds, cells were lysed in ice-cold lysis buffer containing phosphatase inhibitor cocktail and 1 mM PMSF. Cell lysates (50 μL/well) were then transferred to ELISA plates (pRb Ser807/811 ELISA kit, Cell Signaling, 13152 or pRb Ser780 ELISA kit, Cell Signaling, 13016)). Plates were incubated overnight at 4° C., with constant slow speed shaking. After incubation, plates were washed following manufacturer's recommendations, and then 100 μL reconstituted detection antibody was added to each well and incubated for 1 hour at 37° C. After incubation, plates were washed, and then 100 μL reconstituted HRP-linked secondary antibody was added to each well and incubated for 30 mins at 37° C. […] Plates were read on the Envision plate reader (PerkinElmer, 2104-0010) using the 96-well […] mode. IC50 values were calculated using 4 parameter sigmoidal dose-response model of Xlfit5/GraphPad Prism 5 software. […]

[2] = target: CDK6/CyclinD3 (Homo sapiens, UniProt Q00534); test: Assay for inhibition of CDK6/CyclinD3 (Caliper microfluidic kinase assay); format: biochemical; settings: read-out: CDK6 IC50; CDK6/CyclinD3, 300 μM ATP
Description: (§1) The CDK6 enzyme assay for IC50 determination was performed as follows. Microfluidic kinase detection technology (Caliper) was used to monitor the phosphorylation of peptide substrate by CDK6/CyclinD3. The total reaction volume is 15 μL containing buffer A (100 mM HEPES (pH 7.5), 0.1% BSA, 0.01% Triton X-100, 1 mM DTT, 10 mM MgCl2, 10 μM Sodium Orthovanadate, 10 μM Beta-Glycerophosphate), 300 μM ATP, 2 nM CDK6/CyclinD3 (Carna, 04-107), 1 μM FL-34 (5-FAM-RRRFRPASPLRGPPK), and the test compound at appropriate dilutions in DMSO. All components were added to the 384-well plate (Corning, 4514), and incubated at Room Temperature for 3 hours. The reaction was terminated by addition of 15 μL Stop Buffer (180 mM HEPES (pH 7.5), 20 mM EDTA, Coating-3 reagent (PerkinElmer, 760050)). The plate was then loaded on Caliper EZ Reader (EZ Reader II, PerkinElmer, HD-4HYSG2772), and the reaction mixtures including substrate and product were sipped into the microfluidic chip for separation and detection. The IC50 values of the test compound were determined by fitting the inhibition curves by 4 parameter sigmoidal dose-response model using the Xlfit5/GraphPad Prism 5 software.
(§2) The IC50 values are indicated as “A,” “B,” “C,” and “D,” for values less than or equal to 10 nM; less than or equal to 100 nM; less than or equal to 1 μM; and greater than 1 μM, respectively.

[3] = system: T47D breast cancer cells; test: Anti-proliferation assay in T47D cell (Cyquant, day 6); settings: read-out: T47D IC50
From the text: T47D is a human breast cancer cell line commonly used in biomedical research involving the hormonal expression of cancer cells. T47D cells are distinct from other human breast cancer cells in that their progesterone receptors (PR) are not regulated by estradiol, a hormone that is abundant within the cells themselves. T47D cells have been employed in studies of the effects of progesterone on breast cancer and the corresponding transcriptional regulation caused by introduced drugs. The cells have been noted to be extremely resistant to estrogens and antiestrogens.
T47D breast cancer cells from American Type Culture Collection (ATCC, HTB-133) were plated at 3000 cells/well in 96-well plates, and were incubated in RPMI 1640 medium (Gibco, 31800105) with 10% Fetal Bovine Serum (FBS, Biowest, FB-1058) at 37° C., 5% CO2. After overnight incubation, baseline values were measured of the samples from one plate using Cyquant reagent (Invitrogen, C35011) following manufacturer's recommendations. Cells were incubated with the detection reagent for 1 hour at 37° C., and then the fluorescence was measured with excitation at 485 nm and emission at 535 nm using Spectra Max M5 (Molecular Devices, HD-4HYSG3196). […] On day 6 after compound addition, Cyquant reagent was added and the fluorescence was measured using Spectra Max M5. […]

[4] = target: CDK4/CyclinD1 (Homo sapiens, UniProt P11802); test: Assay for inhibition of CDK4/CyclinD1 (Caliper microfluidic kinase assay); format: biochemical; settings: read-out: CDK4 IC50; CDK4/CyclinD1, 200 μM ATP
Description: as §1, with “The CDK4” for “The CDK6”, “by CDK4/CyclinD1.” for “by CDK6/CyclinD3.”, “volume was” for “volume is”, “Beta-Glycerophosphate), 200” for “Beta-Glycerophosphate), 300”, “ATP, 1” for “ATP, 2”, “nM CDK4/CyclinD1 (Thermofisher, PR8064A),” for “nM CDK6/CyclinD3 (Carna, 04-107),”
as §2

[5] = target: CDK2/CyclinE1 (Homo sapiens, UniProt P24941); test: Assay for inhibition of CDK2/CyclinE1 (Caliper microfluidic kinase assay); format: biochemical; settings: read-out: CDK2 IC50; CDK2/CyclinE1, 100 μM ATP
Description: The CDK2 enzyme assay for IC50 determination was performed as follows. Microfluidic kinase detection technology (Caliper) was used to monitor the phosphorylation of peptide substrate by CDK2/CyclinE1. The total reaction volume was 15 μL containing buffer A (100 mM HEPES (pH 7.5), 0.1% BSA, 0.01% Triton X-100, 1 mM DTT, 10 mM MgCl2, 10 μM Sodium Orthovanadate, 10 μM Beta-Glycerophosphate), 100 μM ATP, 5 nM CDK2/CyclinE1 (SignalChem, C29-18G), 5 μM FL-18 (5-FAM-QSPKKG-NH2), and the test compound at appropriate dilutions in DMSO. All components were added to the 384-well plate (Corning, 4514), and incubate at Room Temperature for 3 hours. The reaction was terminated by addition of 15 μL Stop Buffer (180 mM HEPES (pH 7.5), 20 mM EDTA, Coating-3 reagent (PerkinElmer, 760050)). The plate was loaded on Caliper EZ Reader (EZ Reader II, PerkinElmer, HD-4HYSG2772), and the reaction mixtures including substrate and product were sipped into the microfluidic chip for separation and detection. The IC50 values of the test compound were determined by fitting the inhibition curves by 4 parameter sigmoidal dose-response model using the Xlfit5/GraphPad Prism 5 software.
as §2

SMILES: CC(C)c1cnn2ccc(-c3nc(Nc4ccc(N5CCN(S(C)(=O)=O)CCC5=O)cn4)ncc3F)cc12
- IC50 [1]: < 100 nM
- IC50 [2]: 10 to 100 nM
- IC50 [3]: < 100 nM
- IC50 [4]: < 10 nM
- IC50 [5]: 10 to 100 nM

SMILES: CC(C)n1cnc2c(F)nc(-c3ccnc(Nc4ccc(N5CCC(C6CC(F)C6)CC5=O)cn4)n3)cc21 (stereo not shown)
- IC50 [1]: < 100 nM
- IC50 [2]: 10 to 100 nM
- IC50 [3]: < 100 nM
- IC50 [4]: < 10 nM
- IC50 [5]: 10 to 100 nM
